Test results as given in ChEMBL document CHEMBL4673246, “Directing Drugs to Bugs: Antibiotic-Carbohydrate Conjugates Targeting Biofilm-Associated Lectins of Pseudomonas aeruginosa” (J Med Chem, 2020).
pIC50: −log10 of the molar value.

Assay: Inhibition of Pseudomonas aeruginosa PAO1 LecB expressed in Escherichia coli BL21(DE3) cells incubated for 4 to 8 hrs by (N-(fluorescein-5-yl)-N'-(alpha-L-fucopyranosyl ethylene)thiocarbamide) reporter based fluorescence polarization assay

Q: With `CO[C@H]1O[C@H](CO)[C@@H](O)[C@H](O)[C@@H]1O` as the compound, how does the pIC50 read?
A: Its pIC50 is 3.78.
